Among the data in US7994211B2, “Bicyclo[2.2.1]hept-7-ylamine derivatives and their uses” (Argenta Discovery Limited, priority 2005, dated 2011) are Ki values, retold here.

The assay deals with human muscarinic receptors (M3) (Homo sapiens, UniProt P20309). Briefly: Muscarinic receptor radioligand binding assay ([3H]-NMS).

Compound `CN(CCCCCCCCCNC[C@H](O)c1ccc(O)c2[nH]c(=O)ccc12)[C@H]1[C@H]2CC[C@@H]1[C@H](OC(=O)C(O)(c1cccs1)c1cccs1)C2` [Example 41, Hydroxy-di-thiophen-2-yl-acetic acid (1S,2R,4S,7S)-7-({9-[(R)-2-hydroxy-2-(8-hydroxy-2-oxo-1,2-dihydro-quinolin-5-yl)-ethylamino]-nonyl}-methyl-amino)-bicyclo[2.2.1]hept-2-yl ester] registered a Ki of less than 1 nM.
